Laboratory results from US20100152429A1, “SODIUM SALT OF DISACCHARIDE COMPOUND, METHOD FOR PRODUCING THE SAME, AND USE OF THE SAME” (Eisai R&D Management Co., Ltd., priority 2006, published 2010).

Test: Storage Safety Test: impurity generation on storage at 25° C., HPLC;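 note: HPLC peak area percentages of three decomposition products, each sample run alongside a methanol-only blank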
Type: physicochemical
Details: stored at 25° C.; for Impurity generation ratio Impurity A / Impurity generation ratio Impurity B / Impurity generation ratio Impurity C: Table 5 summary, monthly basis, percentage of area; for Impurity A Generation ratio / Impurity B Generation ratio / Impurity C Generation ratio: converted to a monthly basis
Experimental: The salts of examples 2-4 and comparative example 1 were put in glass bottles with screw caps, and stored for 30 days at 25° C., and the generation ratio of impurities A, B and C were determined as follows.
Each salt of examples 2-4 and comparative example 1 was dissolved in methanol to make a solution of concentration 5 mg/ml. When HPLC analysis was performed under the conditions shown in Table 1 for each solution and blank solution (methanol only), three types of decomposition product were identified, and the generation ratio (converted to a monthly basis) was calculated for each of the three decomposition products (impurities A, B and C) as a percentage of area.

In the case of `CCCCCCC=CCCCCCCCCCC(=O)NC1C(OCC2OC(OP(=O)([O-])[O-])C(NC(=O)CC(=O)CCCCCCCCCCC)C(OCCCCCCCCCC)C2O)OC(COC)C(OP(=O)([O-])[O-])C1OCCC(CCCCCCC)OC.[Na+].[Na+].[Na+].[Na+]` (stereo not drawn) [Comparative Example 1, reference compound], the “Impurity generation ratio Impurity A” value is reported as 0.729, the “Impurity generation ratio Impurity B” value is reported as 3.117 and the “Impurity generation ratio Impurity C” value is reported as 0.033. For the same compound, the “Impurity A Generation ratio” value was 0.729 %/month, the “Impurity B Generation ratio” value was 3.117 %/month and the “Impurity C Generation ratio” value was 0.033 %/month.

With `CCCCCC/C=C\CCCCCCCCCC(=O)N[C@H]1[C@H](OC[C@H]2O[C@H](OP(=O)([O-])[O-])[C@H](NC(=O)CC(=O)CCCCCCCCCCC)[C@@H](OCCCCCCCCCC)[C@@H]2O)O[C@H](COC)[C@@H](OP(=O)([O-])[O-])[C@@H]1OCC[C@@H](CCCCCCC)OC.[Na+].[Na+].[Na+].[Na+]` [Example 3] the “Impurity generation ratio Impurity A” value (listed as Ex. 3) was 0.072, the “Impurity generation ratio Impurity B” value (listed as Ex. 3) was 0.267 and the “Impurity generation ratio Impurity C” value (listed as Ex. 3) was 0.072. For the same compound, the “Impurity A Generation ratio” value (listed as 3.67 Na salt) was 0.072 %/month, the “Impurity B Generation ratio” value (listed as 3.67 Na salt) was 0.267 %/month and the “Impurity C Generation ratio” value (listed as 3.67 Na salt) was 0.072 %/month.

For `CCCCCC/C=C\CCCCCCCCCC(=O)N[C@H]1[C@H](OC[C@H]2O[C@H](OP(=O)(O)O)[C@H](NC(=O)CC(=O)CCCCCCCCCCC)[C@@H](OCCCCCCCCCC)[C@@H]2O)O[C@H](COC)[C@@H](OP(=O)(O)O)[C@@H]1OCC[C@@H](CCCCCCC)OC` [Example 2], the “Impurity generation ratio Impurity A” value was 0.000, the “Impurity generation ratio Impurity B” value was 0.000 and the “Impurity generation ratio Impurity C” value was 0.282. For the same compound, the “Impurity A Generation ratio” value was 0.00 %/month, the “Impurity B Generation ratio” value was 0.00 %/month and the “Impurity C Generation ratio” value was 0.282 %/month.

In the case of `CCCCCC/C=C\CCCCCCCCCC(=O)N[C@H]1[C@H](OC[C@H]2O[C@H](OP(=O)([O-])[O-])[C@H](NC(=O)CC(=O)CCCCCCCCCCC)[C@@H](OCCCCCCCCCC)[C@@H]2O)O[C@H](COC)[C@@H](OP(=O)([O-])[O-])[C@@H]1OCC[C@@H](CCCCCCC)OC.[Na+].[Na+].[Na+].[Na+]` [Example 4], the “Impurity generation ratio Impurity A” value (listed as Ex. 4) is reported as 0.363, the “Impurity generation ratio Impurity B” value (listed as Ex. 4) is reported as 1.455 and the “Impurity generation ratio Impurity C” value (listed as Ex. 4) is reported as 0.063. The “Impurity A Generation ratio” value (listed as 3.93 Na salt) was 0.363 %/month, the “Impurity B Generation ratio” value (listed as 3.93 Na salt) was 1.455 %/month and the “Impurity C Generation ratio” value (listed as 3.93 Na salt) was 0.063 %/month.
